Measurements taken from PubChem BioAssay AID1117280 (The Scripps Research Institute Molecular Screening Center, 2014).
The entries are a selection whose mix differs from that of the whole data set. The source made the active and inactive calls.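 The calls were made as follows: active = mean activation above a set limit taken from the earlier primary screen (cut at about 11% in these data); inactive = the rest.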

These compounds were tested against Transthyretin (Homo sapiens) (UniProt P02766) (assay: compounds raising TTR promoter-driven luciferase – cell-based, luminescence, SH-SY5Y, triplicate, confirmation (AID 1117280;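 also: 0% = DMSO-treated cells and 100% = recombinant Lucia luciferase without cells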)). Conditions: SHSY5Y TTR promoter Gaussia luciferase, at 16.7 µM, stronger effect = higher value, 100% = purified Lucia enzyme wells, no cells.

Q: For `CCOP(=O)(Nc1ccccc1)OCC`, which activation is on record?
A: inactive: 0.15%

Q: `Cc1ccc(OP(=O)(Nc2nccs2)Oc2ccc(C)cc2)cc1` was tested. Which activation did it give?
A: inactive: -0.45%
